According to patent US20240344035A1, “Culture Medium and Culture Method for Human Primary Acute Myeloid Leukemia Cells” (PRECEDO PHARMACEUTICALS CO., LTD, priority 2021, published 2024):

Key:
Type in all cases: cell-based
[1] = test system: human primary acute myeloid leukemia cells; assay: Effect of single added factors in Basal Medium on proliferation (CCK-8); set-up: key: +: compared with the Basal Medium, the culture medium added with the additive can promote the proliferation of two cases of human primary acute myeloid leukemia cells isolated from human primary acute myeloid leukemia bone marrow samples; −: the culture medium added with the additive can promote the proliferation of at least one case of human primary acute myeloid leukemia cells isolated from human primary acute myeloid leukemia bone marrow samples; ∘: the medium added with the additive has no significant effect on the proliferation of at least two cases of human primary acute myeloid leukemia cells isolated from human primary acute myeloid leukemia bone marrow samples; conditions: additive at the listed final concentration in Basal Medium; samples A17007, A25104; 5 to 8 days; CCK-8, 450 nm; versus Basal Medium
Method: First, the Basal Medium was prepared. The formulation of the Basal Medium was monocyte serum-free medium (purchased from BI, 05-080-1A)+10% (v/v) fetal bovine serum (purchased from ExCell Bio, FND500)+100 μg/mL Primocin (purchased from InvivoGen, 0.2% (v/v), the commercial product concentration is 50 mg/mL).
Different types of growth factors (see Table 1) were added to the Basal Medium to prepare culture mediums for human primary acute myeloid leukemia cells containing different added components.
The culture mediums of different compositions in Table 1 were added into a 96-well plate in a volume of 100 μL/well. Human primary acute myeloid leukemia cells isolated from two cases of human primary acute myeloid leukemia bone marrow samples (numbered A17007, A25104, from the First Affiliated Hospital of Anhui Medical University) according to the above step (2) were inoculated in the 96-well culture plate at a density of 1×10^4 cells/well and cultured at 37° C. and 5% […]. After 5 to 8 days of culture, the cells grew to 70% to 85%, and 10 μL of Cell Counting Kit-8 (CCK-8, purchased from MCE) was added to each well and incubated at 37° C. and 5% CO2 for 2 to 4 hours. The substances in each well were mixed, and the plate was read using a multifunctional microplate reader (Multi-Mode Detection Platform, American Molecular Instruments (Shanghai) Co., Ltd.) at 450 nm. […]

[2] = test system: human primary acute myeloid leukemia cells; assay: Proliferative effects of different concentrations of added factors (ratio to Blank Control, FIGS. 2A-2H)
Method: Human primary acute myeloid leukemia cells were obtained from human primary acute myeloid leukemia bone marrow samples (numbered A23065, A17112) according to the process of step (2)-3 of Example 1. The cells were resuspended with Basal Medium (monocyte serum-free medium+10% (v/v) fetal bovine serum+100 μg/mL Primocin) for later use.
Next, the factors with cell culture proliferation-promoting effect determined in Example 2 were added to the Basal Medium (prepared according to the No. 2 formulation of Example 2) to obtain a combined basal medium, and then the following 8 formulations of culture mediums were prepared for experiments. • Formulation 1: the combined basal medium without glutamine additive; • Formulation 2: the combined basal medium without human SCF; • Formulation 3: the combined basal medium without human IL-6; • Formulation 4: the combined basal medium without human IL-3; • Formulation 5: the combined basal medium without human FLT3L; • Formulation 6: the combined basal medium without non-essential amino acids; • Formulation 7: the combined basal medium without human IL-7; • Formulation 8: the combined basal medium without human M-CSF.
20 μl of cell suspension containing 4×10^4 cells was added to each well, and the suspension was diluted with 1 mL medium of the above Formulations 1-8, respectively. […]

[3] = test system: human primary acute myeloid leukemia cells; assay: Effect of combinations of added factors on proliferation (viable cell counting, FIG. 1); conditions: six bone marrow samples
Method: The culture mediums for human primary acute myeloid leukemia cells containing different combinations of added factors were prepared according to the components in Table 2, to investigate the proliferation-promoting effects of different added factor combinations on human primary acute myeloid leukemia cells.
Human primary acute myeloid leukemia cells were obtained from human primary acute myeloid leukemia bone marrow samples (numbered A17151, A17152, A20090, A20101, A21004, A20141) according to the process of step (2)-3 of Example 1. The obtained cell suspension was divided into 11 equal parts, which were then centrifuged at 1500 rpm for 4 minutes. After centrifugation, the cells were resuspended with 200 μL BM or No. 1 to 10 culture medium, respectively, and inoculated into a 48-well plate at a viable cell density of 2×10^4 cells/well (20,000 cells per well). Each well in the 48-well plate was supplemented to a volume of 1 mL with the corresponding culture mediums, and the resultant was fully mixed. After surface disinfection, the plate was placed in a 37° C., 5% CO2 incubator (purchased from Thermo Fisher) for culture.
The cells in the 48-well plate grew to more than 85% and were transferred to a 15 mL centrifuge tube which was then centrifuged at 1500 rpm for 5 minutes. 500 μL of monocyte serum-free medium was added to the centrifuge tube to resuspend the cell pellet. […]

Molecule	Level of promoting cell proliferation [1]	concentration at which the cell proliferation effect is most significant ([2]; five concentrations tested) [ng/mL]	proliferation-promoting effect of the factor ([2]; samples A23065, A17112, factor added back to formulation lacking it)	proliferation-promoting effect of the factor (omission from No. 1 medium) [3]
human interleukin-2 [human IL-2]	−			
human interleukin-3 (protein, UniProt P08700 20-152, looked up, cytokine additive from Sino Biological) Interleukin-3: APMTQTTPLKTSWVNCSNMIDEIITHLKQPPLPLLDFNNLNGEDQDILMENNLRRPNLEAFNRAVKSLQNASAIESILKNLLPCLPLATAAPTRHPIHIKDGDWNEFRRKLTFYLKTLENAQAQQTTLSLAIF	+	51	significant proliferation-promoting effect	significantly promote the proliferation
